# Laboratory results as given in patent US20260108496A1, “METHODS FOR REPROGRAMING EXHAUSTED T CELLS AND BOOSTING IMMUNE CHECKPOINT BLOCKADE THERAPY FOR CANCER” (Ohio State Innovation Foundation, priority 2022, published 2026).
# B1: BMP2: natural BMP (Bone Morphogenetic Protein) ligand (protein, UniProt P12643 283-396, looked up)
# Bone morphogenetic protein 2: QAKHKQRKRLKSSCKRHPLYVDFSDVGWNDWIVAPPGYHAFYCHGECPFPLADHLNSTNHAIVQTLVNSVNSKIPKACCVPTELSAISMLYLDENEKVVLKNYQDMVVEGCGCR
# modifications: Bone morphogenetic protein 2
# notes: natural BMP (Bone Morphogenetic Protein) ligand
# What was measured:
# human CD8 T cells = test: treatment of human CD8 T cells with BMP ligands under chronic strong TCR stimulation; assay type: cell-based; settings: day 21
# Description: BMP ligands can signal through type 1 (BMPR1, ACVR1) or type 2 receptors (BMPR2, ACVR2), which typically form heterotetramers upon ligand binding. Once heterotetramers are activated by ligands, they phosphorylate SMAD1/5/8 that binds to SMAD4 and translocates to nucleus and bind to target genes. […] To determine whether and which natural BMP ligand(s) recapitulate BMP4-agonist-mediated effects on dysfunctional CD8 T cells, we treated human CD8 T cells with different BMP ligands, including BMP2, BMP4, BMP6, and BMP10 under chronic strong TCR stimulation (FIG. 33).
# [1] = system: SMAD1/5/8 phosphorylation; settings: cited from earlier work
molecule,measurement,setting,value
B1,"expression levels of terminal exhaustion-associated molecules (CD39, CD101, CD103)",human CD8 T cells,significantly higher expression levels
same,activation of SMAD1/5/8 phosphorylation,[1],strong
